System: KM mice
Details: mouse, in vivo

## Cc1nc2n(c(=O)c1CCN1CCC(c3noc4cc(F)ccc34)CC1)CCCC2 [risperidone, reference compound]
  EPS at effective dosage (in words): did not cause EPS

Reference: patent US9315496B2, “Benzopyrone derivative and use thereof” (HUAZHONG UNIVERSITY OF SCIENCE & TECHNOLOGY, priority 2011, dated 2016)
